Source: ChEMBL document CHEMBL3886144, “Substituted-quinoxaline-type piperidine compounds and the uses thereof” (2014)

Chains of the proteins cited; added tags and fusions are not shown.
UniProt P41143, whole entry, looked up: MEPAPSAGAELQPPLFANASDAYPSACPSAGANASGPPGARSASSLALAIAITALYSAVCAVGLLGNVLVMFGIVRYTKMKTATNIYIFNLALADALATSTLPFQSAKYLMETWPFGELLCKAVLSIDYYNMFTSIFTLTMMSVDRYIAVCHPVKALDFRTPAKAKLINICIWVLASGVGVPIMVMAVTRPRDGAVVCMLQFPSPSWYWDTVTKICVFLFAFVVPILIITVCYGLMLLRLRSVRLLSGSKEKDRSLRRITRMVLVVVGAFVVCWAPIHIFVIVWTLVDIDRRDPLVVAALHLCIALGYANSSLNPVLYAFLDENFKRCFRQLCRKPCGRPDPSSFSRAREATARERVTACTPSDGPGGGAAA
UniProt P35372, whole entry, looked up: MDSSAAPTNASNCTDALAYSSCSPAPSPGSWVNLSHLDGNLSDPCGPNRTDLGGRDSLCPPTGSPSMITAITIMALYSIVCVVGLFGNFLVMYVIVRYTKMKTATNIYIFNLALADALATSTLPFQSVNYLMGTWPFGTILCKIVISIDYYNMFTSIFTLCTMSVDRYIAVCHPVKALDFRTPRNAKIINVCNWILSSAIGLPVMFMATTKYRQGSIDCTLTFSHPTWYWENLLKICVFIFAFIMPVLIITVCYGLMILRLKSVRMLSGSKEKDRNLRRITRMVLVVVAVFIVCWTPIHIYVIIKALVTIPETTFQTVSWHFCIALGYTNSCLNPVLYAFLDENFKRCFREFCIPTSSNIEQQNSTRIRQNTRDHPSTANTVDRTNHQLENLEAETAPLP

Experiments:
[1] = target: Delta-type opioid receptor (Homo sapiens, UniProt P41143); assay: Radioligand Binding Assay: Radioligand dose-displacement assays used 0.2nM [3H]-Naltrindole (NEN; 33.0 Ci/mmole) with 10-20ug membrane protein (recombinant delta opioid receptor expressend in CHO-K1 cells; Perkin Elmer) in a final volume of 500uL binding buffer (5mM MgCl2, 5% DMSO, 50mM Trizma base, pH 7.4). Non-specific binding was determined in the presence of 25 uM unlabeled naloxone. All react
Mu-type opioid receptor = Mu-type opioid receptor (Homo sapiens, UniProt P35372); assay: Radioligand Binding Assay: Radioligand dose-displacement binding assays for u-opioid receptors used 0.2nM[3H]-diprenorphine (NEN, Boston, Mass.), with 5-20mg membrane protein/well in a final volume of 500 uL binding buffer (10mM MgCl2, 1mM EDTA, 5% DMSO, 50mM HEPES, pH 7.4). Reactions were carried out in the absence or presence of increasing concentrations of unlabeled naloxone. All reactions were

Q: How did the Ki [1] turn out when N#C[C@@H]1CCCN1C(=O)[C@@H]1CC[C@@H](CO)N1 was run?
A: 76.3 µM

Q: And the Ki (Mu-type opioid receptor)?
A: 13.5 µM

Q: How did the Ki [1] turn out when Cc1cc(C)nc(SCc2ccc(C(=O)NN/C=C3\C=CC=C(O)C3=O)cc2)n1 was run?
A: 57.7 µM
